9 molecules from PubChem BioAssay (NCATS) can be followed below.

Only a part is listed here, and it is no random draw. Results filed as inconclusive are left out. Active and inactive are the calls of the source. Calls come from the whole dose curve; as a rule, active = well fitted cell-killing curve with a large enough effect; inconclusive = small, poorly fitted or top-dose-only effect; inactive = flat fitted curve, though single readings scatter.

Experiment [1] in a line: Cell Viability - LYMP2-019 (AID 973).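 Note: 0% = DMSO alone and full effect = 92 µM tetraoctylammonium bromide; nearly all actives have a fitted effect of over 55% in size.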 The conditions noted are these: LYMP2-019 lymphoblastoid cell line viability; at 92.2 µM (top of the series). In outline:
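Human lymphoblastoid LYMP2-019 cells (2500/well) preincubated 5 h at 37 C, then treated 24 h at 37 C in complete medium. Viability by CellTiter-Glo ATP luminescence after 30 min at room temperature; AC50 from Hill fits.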

A short description of experiment [2]: Cell Viability - LYMP2-021 (AID 974).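 Note: compound exposure lasts 24 hours at 37 °C; % is set by controls: 0 for no effect and ±100 for the full control effect; nearly all actives have a fitted effect of over 55% in size.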 The settings on record: LYMP2-021 lymphoblastoid cells viability; at 92.2 µM (top of the series). In outline:
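Human lymphoblastoid LYMP2-021 cells, 2500/well in complete medium, treated 24 hours at 37 C. Intracellular ATP by CellTiter-Glo luminescence (30 min, RT); AC50 from Hill fits of concentration-response.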

Experiment [3] can be described thus: Cell Viability - LYMP2-023 (AID 975).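 Note: cellular ATP measured by luciferase luminescence as viability proxy; cells exposed to compound for 24 hours at 37 °C; plate controls were DMSO only for no effect and 92 µM tetraoctylammonium bromide control for full effect; nearly all actives have a fitted effect of over 55% in size.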 The conditions noted are these: LYMP2-023 lymphoblastoid cell viability; at 92.2 µM (top of the series). In outline:
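LYMP2-023 human lymphoblastoid cells, 2500/well, preincubated 5 hr at 37 C, then compound-treated 24 hr at 37 C in complete medium. CellTiter-Glo luminescence (ATP) after 30 min at room temperature; AC50 from Hill-equation fits; tetraoctylammonium bromide positive control.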

The nature of experiment [4]: Cell Viability - LYMP2-025 (AID 976).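 Note: plate controls were DMSO only for no effect and tetraoctylammonium bromide control for full effect.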 The conditions noted are these: LYMP2-025 lymphoblastoid cell viability; at 92.2 µM (top of the series). In outline: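 Human lymphoblastoid LYMP2-025 cells, 2500/well, exposed 24 h at 37 C in complete medium in 1536-well qHTS. Viability as cellular ATP by CellTiter-Glo luminescence; AC50 from Hill fits of concentration-response data.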

A short description of experiment [5]: Cell Viability - LYMP2-002 (AID 977).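 Note: plate controls were DMSO only for no effect and 92 µM tetraoctylammonium bromide for full effect.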 The settings on record: LYMP2-002 lymphoblastoid cell viability, qHTS; at 92.2 µM (top of the series). In outline: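 Luminescent ATP readout (CellTiter-Glo, 30 min room temperature) after 24 h compound exposure at 37 C of a human lymphoblastoid line, 2500 cells/well. AC50 values derived by standard Hill fitting of qHTS concentration-response data.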
For orientation: Quantitative high-throughput screening tests each substance at several concentrations.

Experiment [6] in a line: Cell Viability - LYMP2-006 (AID 978). Note: % is set by controls: 0 for no effect and ±100 for the full control effect; nearly all actives have a fitted effect of over 60% in size. The conditions noted are these: LYMP2-006 lymphoblastoid cell viability, qHTS; at 92.2 µM (top of the series). In outline:
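Concentration-dependent loss of intracellular ATP in a human lymphoblastoid line after 24 hr treatment at 37 C was measured by CellTiter-Glo luminescence, with AC50 values obtained from standard Hill-equation modelling.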

Experiment [7] is described as follows: Cell Viability - LYMP2-007 (AID 979).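 Note: cells exposed to compound for 24 h before reading; 0% = DMSO only and the negative end = 92 µM tetraoctylammonium bromide; nearly all actives have a fitted effect of over 60% in size.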 The conditions noted are these: LYMP2-007 lymphoblastoid cell viability; at 92.2 µM (top of the series). In outline: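 Human lymphoblastoid LYMP2-007 cells (2500/well) preincubated 5 h at 37 C, then treated 24 h at 37 C in complete medium. Viability by CellTiter-Glo ATP luminescence after 30 min at room temperature; AC50 from Hill fits.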

A short description of experiment [8]: Cell Viability - LYMP2-008 (AID 980). Note: % is set by controls: 0 for no effect and ±100 for the full control effect; nearly all actives have a fitted effect of over 60% in size. The conditions noted are these: LYMP2-008 lymphoblastoid cell viability, qHTS; at 92.2 µM (top of the series). In outline:
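LYMP2-008 lymphoblastoid cells (2500/well) plated 5 h, then treated 24 h at 37 C in complete medium. Viability read as intracellular ATP by CellTiter-Glo luminescence after 30 min at room temperature; AC50 from Hill fits.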

Experiment [9] in a line: Cell Viability - LYMP2-012 (AID 982).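 Note: cellular ATP by luciferase luminescence where a drop means cytotoxicity; cells exposed to compound for one day before reading; 0% = DMSO only and full loss = 92 µM tetraoctylammonium bromide; nearly all actives have a fitted effect of over 55% in size.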 The conditions noted are these: LYMP2-012 lymphoblastoid cell viability qHTS; at 92.2 µM (top of the series). The source says:
NIH Chemical Genomics Center [NCGC]
NIH Molecular Libraries Screening Centers Network [MLSCN]
National Institutes of Environmental Health Sciences [NIEHS]
National Toxicology Program [NTP]
We have developed a 1536-well cell-based assay for quantitative high throughput screening (qHTS) against a number of cell lines to determine in vitro cytotoxicity of small molecules. This particular assay uses a human lymphoblastoid cell line (LYMP2-012) purchased from Coriell Institute for Medical Research.
NCGC Assay Protocol Summary:
The CellTiter-Glo luminescent cell viability assay (Promega) is a homogeneous method to measure the number of viable cells in culture. The end point readout of this assay is based on quantitation of intracellular ATP, an indicator of metabolic activity, using the luciferase reaction. Luciferase catalyzes the oxidation of beetle Luciferin to oxyluciferin and light in the presence of ATP. The luminescent signal is proportional to amount of ATP present.
Using the CellTiter-Glo luminescent cell viability assay, the amount of cellular ATP was measured in the lymphoblastoid cell line with complete culture medium following compound treatment for 24 hours. The assay was performed in opaque white Kalypsys 1536-well plates. In the screen, tetraoctylammonium bromide was used as positive control. Library compounds were measured for their ability to cause acute toxicity in the cell line, as reflected by a decrease in intracellular ATP levels, in a concentration-dependent manner. […] AC50 values were determined from concentration-response data modeled with the standard Hill equation.
qHTS protocol for CellTiter Glo lymphoblastoid cellular assay
[Step] [Parameter] [Value] [Description]
1. Reagent; 5 uL; 2500 lymphoblastoid cells/well
2. Time; 5 hr; 37 C incubation
4. Controls; 23 nL; Tetraoctylammonium bromide 6.4pM to 92 uM
5. Time; 24 hr; 37 C incubation
6. Reagent; 5 uL; CellTiter Glo reagent
7. Time; 30 min; Room Temperature
8. Detection; Luminescence; Viewlux plate reader
Keywords: cell viability, cytotoxicity, lymphoblastoid cell line, luminescence, NTPHTS, NTPHTS_NCGC, NIEHS, DSSTox, MLSMR, MLSCN, NIH Roadmap, qHTS, NCGC

Experiment [10] can be described thus: Cell Viability - LYMP2-010 (AID 981). Note: potency is the fitted concentration of half-maximal effect. The settings on record: LYMP2-010 lymphoblastoid cell viability, qHTS; series mostly up to 92.2 µM. In outline: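 Human lymphoblastoid LYMP2-010 cells (2500/well) treated 24 h at 37 C in complete medium; viability read as intracellular ATP by CellTiter-Glo luminescence. AC50 from Hill fits of concentration-response data; tetraoctylammonium bromide positive control.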

As for `O=[N+]([O-])c1cccc([N+](=O)[O-])c1`, the activity change, negative = cytotoxicity was inactive: -5.41% in [1]; inactive: 0.0239% in [2]; inactive: -5.24% in [3]; inactive: -12.2% in experiment [4]; inactive: 3.25% in [6]; inactive: -5.89% in [7]. For the same molecule, the activity change, negative = cytotoxicity in [8] is inactive: -3.44%; in experiment [9], inactive: -4.18%. For the same molecule, the activity change, negative = cytotoxic in experiment [5] is inactive: -4.87%.

With `CCC(C)(OO)OOC(C)(CC)OO` (configuration not stated), the activity change, negative = cytotoxicity was inactive: -16% in experiment [1]; inactive: -21% in [2]; inactive: -8.97% in experiment [3]; inactive: -5.38% in experiment [4]; inactive: -0.156% in [6]; inactive: -18.9% in experiment [8]. For the same molecule, the activity change, negative = cytotoxicity in [9] is inactive: -23.8%. The activity change, negative = cytotoxic in experiment [5] is inactive: -18.3%. Besides, the Potency in [10] was active: 39.8 µM.

Take `Cc1cccc([N+](=O)[O-])c1[N+](=O)[O-]`: the activity change, negative = cytotoxicity is inactive: -13.2% in [1]; inactive: -5.3% in experiment [2]; inactive: 5.46% in experiment [3]; inactive: -10.2% in [4]; inactive: -4.27% in [6]; inactive: -11.2% in experiment [7]. Further, the results for the activity change, negative = cytotoxicity in experiment [8] and in experiment [9] were inactive: -14.3% and inactive: -21.4%, respectively. Further, in [5], the activity change, negative = cytotoxic was inactive: 6.34%. The Potency result in experiment [10] is “inactive”.

`Cc1c([N+](=O)[O-])cccc1[N+](=O)[O-]`: the activity change, negative = cytotoxicity in experiment [1] is inactive: -9.5%; in experiment [2], inactive: -1.57%; in experiment [3], inactive: -7.81%; in [4], inactive: -4.26%; in experiment [6], inactive: 10.2%; in experiment [7] it was inactive: -7.67%. Also, the activity change, negative = cytotoxicity in [8] is inactive: -4.34%; in experiment [9], inactive: -6.07%. In experiment [5], the activity change, negative = cytotoxic is inactive: 1.95%. In addition, the Potency result in [10] was “inactive”.

`O=[N+]([O-])[O-].[NH4+]`: the activity change, negative = cytotoxicity in [1] was inactive: -6.34%; in [2] it was inactive: -6.06%; in experiment [3], inactive: 0.0392%; in experiment [4], inactive: -3.81%; in experiment [6], inactive: -2.53%; in experiment [7] it was inactive: 0.056%. Moreover, the activity change, negative = cytotoxicity is inactive: -8.07% in experiment [8] and inactive: -0.446% in [9]. Moreover, in experiment [5], the activity change, negative = cytotoxic was inactive: -1.58%. Moreover, the Potency entry in [10] is “inactive”.

Turning to `CCOP(=O)(CC)OCC`, the activity change, negative = cytotoxicity in [1] is inactive: -7.39%; in [2], inactive: -4.09%; in [3] it was inactive: -2.55%; in [4] it was inactive: -6.72%; in experiment [6], inactive: 11.7%; in experiment [7] it was inactive: -4.19%. The activity change, negative = cytotoxicity in experiment [8] was inactive: -10.2%; in experiment [9] it was inactive: 3.23%. Further, the activity change, negative = cytotoxic in experiment [5] is inactive: -7.96%. For the same molecule, in experiment [10], the Potency entry is “inactive”.

With `[NH4+].[O-][Cl+3]([O-])([O-])[O-]`, the activity change, negative = cytotoxicity is inactive: 2.34% in [2], inactive: -0.0743% in [4], inactive: 5.66% in [7] and inactive: -1.17% in experiment [8]. Also, the activity change, negative = cytotoxic in [5] was inactive: -6.45%. Besides, the Potency entry in experiment [10] was “inactive”.

Regarding `Cc1ccc([N+](=O)[O-])cc1[N+](=O)[O-]`, the activity change, negative = cytotoxicity is inactive: -2.94% in experiment [1]; inactive: -3.53% in experiment [2]; inactive: -3.95% in experiment [3]; inactive: -10.8% in [4]; inactive: 6.86% in [6]; inactive: 0.422% in experiment [7]. Besides, the results for the activity change, negative = cytotoxicity in experiment [8] and in experiment [9] were inactive: -5.12% and inactive: -13.7%, respectively. In experiment [5], the activity change, negative = cytotoxic was inactive: -14.1%. For the same molecule, the Potency result in experiment [10] is “inactive”.

On to `Cc1ccc([N+](=O)[O-])c([N+](=O)[O-])c1`, for which the activity change, negative = cytotoxicity is inactive: -17.9% in experiment [4] and inactive: -25.2% in experiment [9]. Further, the activity change, negative = cytotoxic in experiment [5] is inactive: -25.7%.
